From patent publication US9956192B2, “Selective histone deactylase 6 inhibitors” (H. Lee Moffitt Cancer Center and Research Institute, Inc., priority 2012, dated 2018)

Protein sequences, listed by entry. Tags and fused reporters are not part of them.
UniProt Q13547, whole entry: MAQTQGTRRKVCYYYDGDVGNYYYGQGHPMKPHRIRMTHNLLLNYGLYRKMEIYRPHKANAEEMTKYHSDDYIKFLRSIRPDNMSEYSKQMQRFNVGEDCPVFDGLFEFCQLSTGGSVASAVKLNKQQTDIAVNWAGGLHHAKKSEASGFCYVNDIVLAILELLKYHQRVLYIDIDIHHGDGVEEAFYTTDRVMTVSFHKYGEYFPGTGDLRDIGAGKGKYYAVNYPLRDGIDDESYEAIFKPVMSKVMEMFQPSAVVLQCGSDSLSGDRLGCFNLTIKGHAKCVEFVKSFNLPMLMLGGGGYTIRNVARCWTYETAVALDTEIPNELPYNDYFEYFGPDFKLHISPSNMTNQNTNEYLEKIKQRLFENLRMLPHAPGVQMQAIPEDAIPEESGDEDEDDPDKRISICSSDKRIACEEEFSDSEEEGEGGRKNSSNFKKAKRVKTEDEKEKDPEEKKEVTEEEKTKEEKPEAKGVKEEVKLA

Assays:
[1] = system: B16 murine melanoma cells; experiment: B16 melanoma cell growth inhibition assay (MTS); assay type: cell-based
[2] = target: human, recombinant full-length HDAC1 (Homo sapiens (Human), UniProt Q13547); experiment: HDAC inhibition assay, HDAC1; assay type: biochemical

CCCCN(Cc1ccc(C(=O)NO)cc1)C(=O)Nc1ccccc1 [Compound 5g, 4-((1-butyl-3-phenylureido)methyl)-N-hydroxybenzamide]
growth inhibition of B16 melanoma cell line (in words) [1]: capable of inhibiting the growth of B16 melanoma cell line | reduction in activity at HDAC1 compared to MGCD0103 [2]: 30 fold
